Measured values as given in PubChem BioAssay AID1454 (National Center for Advancing Translational Sciences (NCATS), 2008).
Only a part is listed here, and it is no random draw. Some of these compounds have results that are not shown, active ones among them. Records with an inconclusive call do not appear. The source made the active and inactive calls. Calls follow the shape of the dose curve; as a rule, active = well fitted inhibition curve with a large enough effect; inconclusive = small, poorly fitted or top-dose-only effect, or effect the other way; inactive = flat fitted curve, though single readings scatter.

Experiment: qHTS Assay for Inhibitors of the ERK Signaling Pathway using a Homogeneous Screening Assay; Stimulation with EGF;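 also: plate controls were stimulated vehicle wells for no effect and unstimulated vehicle basal for full effect; nearly all actives have a fitted effect of over 55% in size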
Conditions: HEK293-V1b, EGF-stimulated phospho-ERK AlphaScreen; at 11.5 µM unless noted

Compound | activity change, negative = inhibition
COc1cccc(C(=O)NCC2(N3CCCCC3)CCCCC2)c1 | inactive: -2.95%
COc1ccc(Br)c(C(=O)NCC2(N3CCCCC3)CCCCC2)c1 | inactive: 2.92% [at 57.5 µM]
CCN(CC)CC(C)C(C)OC(=O)C(O)(c1ccccc1)c1ccccc1 (stereo not drawn) | inactive: -2.13% [at 57.5 µM]
O=C(NCC1(N2CCCCC2)CCCCC1)c1cc([N+](=O)[O-])ccc1Cl | inactive: -5.85% [at 57.5 µM]
C=CCN1CCN(CCOC(=O)C(O)(c2ccccc2)c2ccccc2)CC1 | inactive: -6.98%
CCN1CCCC(OC(=O)C2(O)c3ccccc3C=Cc3ccccc32)C1 (stereo not drawn) | inactive: 18.8%
CN(C)C1CCCC1OC(=O)C(O)(c1ccccc1)c1ccccc1 (stereo not drawn) | inactive: 7.94%
Cc1ccccc1C(=O)NCC1(N2CCCCC2)CCCCC1 | inactive: 0.133%
